Reference: patent US20080220497A1, “Modulation of protein functionalities” (priority 2003, published 2008)

Sequences of proteins named here, by UniProt entry; tags and fusion partners are left off. A line that says so, or that is headed by a name, gives the form on record, which may keep a tag or linker.
UniProt Q16539, with tags, fused parts or gaps: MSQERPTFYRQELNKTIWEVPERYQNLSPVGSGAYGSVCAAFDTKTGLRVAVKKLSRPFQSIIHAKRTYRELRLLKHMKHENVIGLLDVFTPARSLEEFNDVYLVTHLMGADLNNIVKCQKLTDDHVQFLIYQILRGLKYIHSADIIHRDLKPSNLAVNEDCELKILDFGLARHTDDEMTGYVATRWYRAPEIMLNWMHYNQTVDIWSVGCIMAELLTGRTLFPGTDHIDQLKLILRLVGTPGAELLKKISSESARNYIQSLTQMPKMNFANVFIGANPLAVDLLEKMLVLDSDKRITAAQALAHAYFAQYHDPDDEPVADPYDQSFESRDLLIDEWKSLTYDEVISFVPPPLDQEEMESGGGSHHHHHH
UniProt Q16539, with tags, fused parts or gaps DEL261-261: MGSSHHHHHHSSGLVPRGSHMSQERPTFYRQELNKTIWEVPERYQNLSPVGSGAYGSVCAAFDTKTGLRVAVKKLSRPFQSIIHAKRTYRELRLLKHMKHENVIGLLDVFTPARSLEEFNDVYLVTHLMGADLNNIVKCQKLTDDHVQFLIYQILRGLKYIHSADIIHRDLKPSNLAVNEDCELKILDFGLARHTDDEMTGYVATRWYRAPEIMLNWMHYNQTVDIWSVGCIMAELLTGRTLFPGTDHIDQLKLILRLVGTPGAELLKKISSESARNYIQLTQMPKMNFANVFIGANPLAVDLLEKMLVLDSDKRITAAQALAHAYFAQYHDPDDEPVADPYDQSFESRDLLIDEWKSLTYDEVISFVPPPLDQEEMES

Key:
[1] = molecular target: T1, doubly phosphorylated p38-alpha kinase (Homo sapiens, UniProt Q16539); experiment: Fluorescence affinity assay, doubly phosphorylated p38-alpha kinase; type: binding
T1 construct: 6xHis ([…], seen only in the listing) (C); purchased Roche Applied Diagnostics
Excerpt: (§1) This fluorescence affinity assay is utilized in an affinity-based screen to identify small molecules which bind into switch control pockets of protein kinases. Binding of small molecule switch inhibitors displaces the switch control ligand phenylalanine of the DFG motif into an orientation which sterically blocks the ATP pocket. Such inhibitor-induced blockade of the ATP pocket is registered as an inhibition of binding of the fluoroprobe into the ATP pocket.
(§2) • 1. p38-alpha kinase • a. […] Polarstar Optima plate reader (BMG)
• 1. […] This dilution can be done automatically on a Tecan (or similar) robotic workstation or performed manually. • 3. Mix Solution A with the diluted compound solutions following Step 3 of Table 22. This step can be performed automatically on a Tecan (or similar) robotic workstation or performed manually. • 4. Incubate at 30° C. or room temp for 2 h, depending on protein stability. • 5. Read at emission wavelength 420 nm upon excitation at 340 nm. […]
A ratio greater than 1.0 indicates a preference for inhibiting the unphosphorylated form of p38-alpha kinase relative to the doubly phosphorylated form. A ratio less than 1.0 indicates a preference for inhibiting the doubly phosphorylated form of p38-alpha kinase relative to the unphosphorylated form.

[2] = molecular target: T2, unphosphorylated p38-alpha kinase (Homo sapiens, UniProt Q16539, DEL261-261); experiment: Fluorescence affinity assay, unphosphorylated p38-alpha kinase; type: binding
T2 construct: 48 (6×His-TEV tag, full length); 6×His-TEV tag (N); purchased Decode Genetics, Inc; host or cells: E. coli
Excerpt: as §1, §2
• 1. […] This dilution can be done automatically on a Tecan (or similar) robotic workstation or performed manually. • 3. […] Read at emission wavelength 420 nm upon excitation at 340 nm.
The reaction was initiated by addition of the enzyme. […] By comparison of RFU (relative fluorescence units) values with that of a control (in the absence of small molecule modulators), the percentage of inhibition at each concentration of the small molecules was calculated. IC50 values for the small molecule modulators were calculated from the % inhibition values obtained at a range of concentrations of the small molecule modulators using Prism (available from GraphPad, Inc.). When time-dependent inhibition was assessed, the plate was read at multiple reaction times such as 0.5, 1, 2, 3, 4 and 6 hours. The IC50 values were calculated at each time point. […]

[3] = molecular target: T1, doubly phosphorylated p38-alpha kinase; experiment: Thermal denaturation of doubly phosphorylated p38-alpha kinase; type: binding; details: 0.5 μM p38-alpha kinase, 20 μM small molecule
Description: (§3) Denaturation was monitored by measuring the absolute absorbance of the solutions at an appropriate wavelength (typically 230 nm and 240 nm) as a function of temperature. As the protein became denatured, additional UV absorbing functional groups became exposed causing an increase in absorbance at the melting temperature. […] The thermal data were collected using Agilent spectrophotometers and ChemStation UV/Vis Thermal Denaturation software.
The final concentration was 0.5 μM p38-alpha kinase and 20 μM small molecule. The final protein and buffer solution was mixed gently using a pipetter to minimize denaturing due to over aggressive mixing. The final solution was transferred to a 50 μL cuvette for analysis.
The protein and buffer solution was mixed gently using a pipetter to minimize denaturing due to over aggressive mixing. The final solution was transferred to a 50 μL cuvette for analysis.
(§4) A first derivative calculation with data smoothing was applied to the resulting data to report the point of inflection as the melting temperature.

Phospho-p38-alpha kinase = molecular target: T3, Phospho-p38-alpha kinase (Homo sapiens, UniProt Q16539); experiment: Spectrophotometric assay for phospho-p38-alpha kinase; details: read-out: Biochemical assay IC50
T3 construct: 6xHis ([…], seen only in the listing) (C); purchased Roche Applied Diagnostics
Description: Spectrophotometric Assay for Phospho-p38-alpha Kinase
• 1. […] Pyruvate kinase (PK) and lactate dehydrogenase (LDH) from Sigma: 806 units of PK and 1100 units of LDH per mL • 4. NADH (Sigma): 5.6 mM • 5. Phosphoenol pyruvate (Sigma): 20 mM • 6. Tris buffer: 100 mM Tris-HCl/20 mM MgCl2, pH 7.5, 150 uM n-Dodecyl-b-D-Maltopyranoside, and 5% DMSO • 7. ATP (20 mM) • 8. […] Polarstar Optima plate reader (BMG)
IC50 determinations were performed using a serial dilution scheme to dilute inhibitor in DMSO, followed by further dilution in reaction buffer, and finally mixing with Mixture 1 (Table 29) which contains all the enzymes. The dilution procedure ensured that the test compound at various concentrations was properly dissolved into the buffer and enzyme reaction mixture.
• 1. […] Read on the microplate reader with one point every min for at least 2.5 hours at 30° C.
A linear regression was applied to data collected from t=1.5 hr to 2.5 hr to obtain the reaction rate for each data set. […] Percentage of inhibition was calculated by comparison of the rate in the presence of a compound with that of the control. IC50 values were calculated from a series of % inhibition values determined at a range of inhibitor concentrations using GraphPad Prism (version 4). The extinction coefficient at 340 nm for NADH under the assay condition (100 μL height in a Corning 3675 microplate well) was determined to be 5×10^3 M^−1.

[4] = molecular target: T2, unphosphorylated p38-alpha kinase; experiment: Thermal denaturation of unphosphorylated p38-alpha kinase; type: binding; details: 15 μM small molecule
Excerpt: as §3
The final protein and buffer solution was mixed gently using a pipetter to minimize denaturing due to over aggressive mixing. The final solution was transferred to a 50 μL cuvette for analysis.
The final solution was transferred to a 50 μL cuvette for analysis.
as §4

Structure (SMILES) | IC50 [1] [nM] | IC50 [2] [nM] | ΔTm (° C.) relative to doubly phosphorylated p38 [3] [°C] | IC50 (Phospho-p38-alpha kinase) [nM] | ΔTm (° C.) relative to unphosphorylated apo p38 [4] [°C]
CC(C)(C)c1cc(NC(=O)Nc2cccc3ccccc23)n(-c2cccc(CCC(=O)O)c2)n1 [Example 29, 3-(3-(3-tert-butyl-5-(3-(naphthalen-1-yl)ureido)-1H-pyrazol-1-yl)phenyl)propanoic acid] | 56 | 16 | 7.3 | 12 | 10.1
CC(C)(C)c1cc(NC(=O)Nc2cccc(Cl)c2Cl)n(-c2cccc(CC(N)=O)c2)n1 [Example 69] |  |  |  | 7 | 
